Literature values, collected in PMC2996101 (Journal of natural products, 2009).

Tested on: 12-hLO
Conditions: read-out: previous IC50 12-hLO; previous work without Triton X100 ref 9; cited from earlier work

For `CC(Cc1ccc(O)c(O)c1)C(C)Cc1ccc(O)c(O)c1` (stereo not shown) [Compound 12, NDGA, reference compound], the IC50 is given as 42 µM.
